For the data set, the system named is human salivary gland cell line. The settings on record: 1.0, 0.5, 0.2 and 0.1 mg/ml D-methionine six hours before 10 Gy.

SMILES strings stand for the structures.

`CSCC[C@@H](N)C(=O)O` [D-methionine]: the cell growth entry is reported as “underwent log phase growth” and the cell viability was 85-95%.

Values taken from patent US20050090551A1, “Therapeutic use of methionine for the treatment or prevention of mucositis” (Board of Trustees of Southern Illinois University, priority 2003, published 2005).
